Measured values from patent US7825118B2, “Inhibitors of bruton's tyrosine kinase” (Pharmacyclics, Inc., priority 2006, dated 2010).

Protein sequences, listed by entry. Tags and fused reporters are not part of them. Lines headed by an entry give the natural chain unless they say otherwise; changes in a name come on top.
UniProt Q06187: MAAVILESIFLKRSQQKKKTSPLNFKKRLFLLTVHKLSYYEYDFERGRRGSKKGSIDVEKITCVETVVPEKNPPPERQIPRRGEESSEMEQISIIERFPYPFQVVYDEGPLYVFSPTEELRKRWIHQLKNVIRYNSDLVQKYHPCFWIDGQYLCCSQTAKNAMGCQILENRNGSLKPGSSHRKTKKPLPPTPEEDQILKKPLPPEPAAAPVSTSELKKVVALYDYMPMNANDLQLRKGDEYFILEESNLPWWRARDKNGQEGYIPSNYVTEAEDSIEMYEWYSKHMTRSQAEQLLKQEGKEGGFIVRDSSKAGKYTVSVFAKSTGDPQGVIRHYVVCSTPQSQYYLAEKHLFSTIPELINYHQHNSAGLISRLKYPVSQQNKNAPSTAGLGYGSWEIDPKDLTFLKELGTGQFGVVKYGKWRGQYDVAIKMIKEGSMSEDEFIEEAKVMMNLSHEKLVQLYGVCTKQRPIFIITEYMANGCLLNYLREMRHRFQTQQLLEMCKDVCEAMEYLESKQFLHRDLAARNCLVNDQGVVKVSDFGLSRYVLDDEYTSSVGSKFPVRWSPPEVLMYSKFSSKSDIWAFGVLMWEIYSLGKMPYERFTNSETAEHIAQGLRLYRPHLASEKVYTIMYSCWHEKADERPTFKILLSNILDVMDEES

Target: Btk (Homo sapiens, UniProt Q06187)
Assay: Btk acellular kinase assay (TR-FRET)

Question: With `C=CS(=O)(=O)N1CCCC(n2nc(-c3ccc(Oc4ccccc4)cc3)c3c(N)ncnc32)C1` (stereo not shown) [Compound 6, 1-(3-(4-amino-3-(4-phenoxyphenyl)-1H-pyrazolo[3,4-d]pyrimidin-1-yl)piperidin-1-yl)sulfonylethene] as the compound, how does the IC50 read?
Answer: Its IC50 is 0.52 nM.
